Drawing on patent US20180214395A1 (priority 2017, published 2018), this text covers Cmax for one compound.

The data set is described as follows: Single ascending dose (SAD) study in healthy volunteers: pharmacokinetics of d-methadone. Conditions: both, human, in vivo, 5 mg, SAD 5 mg, mean.

Broadly, the Cmax is the peak of the concentration-time curve. In turn, `CCC(=O)C(C[C@H](C)N(C)C)(c1ccccc1)c1ccccc1` [d-methadone] gave a Cmax of 53.3 ng/mL.
